This passage reports Ratio Ki, Efficacy and Ki results from ChEMBL document CHEMBL3603733, “Synthesis and biological evaluation of (3',5'-dichloro-2,6-dihydroxy-biphenyl-4-yl)-aryl/alkyl-methanone selective CB2 inverse agonist” (Bioorg Med Chem, 2015).

Amino acid sequences for entries named in this document (tags omitted).
UniProt P21554, whole entry: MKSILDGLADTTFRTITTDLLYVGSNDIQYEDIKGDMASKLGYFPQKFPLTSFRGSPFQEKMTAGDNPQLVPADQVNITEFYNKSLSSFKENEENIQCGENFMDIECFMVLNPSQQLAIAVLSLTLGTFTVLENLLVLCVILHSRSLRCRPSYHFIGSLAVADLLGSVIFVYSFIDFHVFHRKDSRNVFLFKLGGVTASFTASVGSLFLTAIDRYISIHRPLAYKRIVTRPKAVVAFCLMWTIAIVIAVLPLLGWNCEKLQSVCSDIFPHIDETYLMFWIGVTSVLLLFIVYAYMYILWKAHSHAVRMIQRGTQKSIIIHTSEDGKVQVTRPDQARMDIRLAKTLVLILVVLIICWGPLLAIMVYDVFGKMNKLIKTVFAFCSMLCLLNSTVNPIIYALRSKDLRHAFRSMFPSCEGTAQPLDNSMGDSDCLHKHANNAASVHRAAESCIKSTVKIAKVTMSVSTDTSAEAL
UniProt P34972, whole entry: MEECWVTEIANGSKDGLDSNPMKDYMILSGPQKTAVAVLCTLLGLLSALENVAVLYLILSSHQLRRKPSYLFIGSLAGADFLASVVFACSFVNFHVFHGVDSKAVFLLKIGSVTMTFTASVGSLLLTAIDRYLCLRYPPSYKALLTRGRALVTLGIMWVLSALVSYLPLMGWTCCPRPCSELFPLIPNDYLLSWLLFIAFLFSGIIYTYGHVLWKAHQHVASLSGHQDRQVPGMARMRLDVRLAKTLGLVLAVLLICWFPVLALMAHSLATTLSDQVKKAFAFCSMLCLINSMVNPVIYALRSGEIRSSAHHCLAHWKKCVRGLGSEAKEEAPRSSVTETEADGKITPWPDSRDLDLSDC

Activity calls are given as the source filed them. No cut-off for these calls is given here.

For one test, the species on record is Homo sapiens. Kind of test: Selectivity ratio of Ki for CB1 receptor (unknown origin) to Ki for CB2 receptor (unknown origin).
Test [1] has as its target T1, Cannabinoid receptor 1 (Homo sapiens, UniProt P21554). Briefly: Inverse agonist activity at CB1 receptor (unknown origin) expressed in HEK cells assessed as increase in cAMP production at 5 x 10^-6 to 5 x 10^-10 M measured at 50 mins by ACTOne dye-based fluorescence assay in presence of forskolin and Ro 20-1724 relative to control. It is filed as functional, cell-based. Conditions: HEK293. An outline of the steps: (§1)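 HEK-CNG+CB1 or HEK-CNG+CB2 cells, plus parental HEK-CNG, were plated at 50,000 cells/well in DMEM with 10% FBS the day before. Membrane potential dye was loaded for 1 h in the dark at room temperature. Ligands were added at 5x10⁻⁶ to 5x10⁻¹⁰ final, with 25 µM Ro 20-1724 and 800 nM forskolin, in DPBS with 2.5% DMSO. Fluorescence (Ex 540, Em 590 nm) was read at 50 min. At least six biological replicates were run, with non-linear fitting.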
Background: Cyclic AMP is a second messenger, typically raised through Gs and lowered through Gi signalling.

A further test has as its target Cannabinoid receptor 2 (Homo sapiens, UniProt P34972). Briefly: Inverse agonist activity at CB2 receptor (unknown origin) expressed in HEK cells assessed as increase in cAMP production at 5 x 10^-6 to 5 x 10^-10 M measured at 50 mins by ACTOne dye-based fluorescence assay in presence of forskolin and Ro 20-1724 relative to control. It is filed as functional, cell-based. The conditions noted are these: HEK293. An outline of the steps:
as §1

For test [2], the target named is T1, Cannabinoid receptor 1. Briefly: Displacement of [3H]-CP55940 from CB1 receptor (unknown origin) expressed in HEK-CNG cell membranes after 90 mins by liquid scintillation counting analysis. (In general: In a radioligand displacement assay an active substance lowers the binding of a labelled ligand.)

One may read the Ki as a dissociation constant, usually derived from enzyme kinetics or from competition with a known ligand. Higher therefore signals weaker binding.

In the case of `O=C(c1cccc(C(F)(F)F)c1)c1cc(O)c(-c2cc(Cl)cc(Cl)c2)c(O)c1`, the Ratio Ki in the test filed under Homo sapiens turned out to be 0.41. Besides, the Efficacy result at Cannabinoid receptor 1 [1] and at Cannabinoid receptor 2 was “inactive” in each case.

In the case of `CC(C)(C)c1ccc(C(=O)c2cc(O)c(-c3cc(Cl)cc(Cl)c3)c(O)c2)cc1`, the Ratio Ki in the test listed under Homo sapiens came to 0.8. In addition, the Efficacy result on Cannabinoid receptor 1 [1] was “inactive”.

With `CCCCCCC(=O)c1cc(O)c(-c2cc(Cl)cc(Cl)c2)c(O)c1`, the Ratio Ki in the test listed under Homo sapiens is 1. Besides, the Efficacy entry on Cannabinoid receptor 1 [1] and on Cannabinoid receptor 2 was “inactive” throughout.

Regarding `CCCc1ccc(C(=O)c2cc(O)c(-c3cc(Cl)cc(Cl)c3)c(O)c2)cc1`, the Ratio Ki in the test filed under Homo sapiens was 167. For the same molecule, on Cannabinoid receptor 1 [1], the Efficacy result was “inactive”.

With `COc1cc(C(=O)c2ccc(C)cc2)cc(O)c1-c1cc(Cl)cc(Cl)c1`, in the test listed under Homo sapiens, the Ratio Ki was found to be 1. Besides, the Efficacy entry on Cannabinoid receptor 1 [1] is “inactive”.

Regarding `CCCCc1ccc(C(=O)c2cc(O)c(-c3cc(Cl)cc(Cl)c3)c(OC)c2)cc1`, the Ratio Ki in the test filed under Homo sapiens was found to be 1. The Efficacy entry on Cannabinoid receptor 1 [1] was “inactive”.

On to `Cc1ccc(Cn2nc(C(=O)N[C@@H]3C(C)(C)[C@@H]4CC[C@@]3(C)C4)cc2-c2ccc(Cl)c(C)c2)cc1` [SR-144528], for which the inhibition constant (Ki) on Cannabinoid receptor 1 [2] was over 10 µM.

Consider `CCc1ccc(C(=O)c2cc(O)c(-c3cc(Cl)cc(Cl)c3)c(O)c2)cc1`, for which, in the test listed under Homo sapiens, the Ratio Ki came to 30.3. Besides, the Efficacy entry on Cannabinoid receptor 1 [1] was “inactive”.

Regarding `CC(C)c1ccc(C(=O)c2cc(O)c(-c3cc(Cl)cc(Cl)c3)c(O)c2)cc1`, the Ratio Ki in the test listed under Homo sapiens turned out to be 20.7. On Cannabinoid receptor 1 [1], the Efficacy result was “inactive”.

On to `Cc1cccc(C(=O)c2cc(O)c(-c3cc(Cl)cc(Cl)c3)c(O)c2)c1`, for which, in the test filed under Homo sapiens, the Ratio Ki came out at 3.82. For the same molecule, the Efficacy result on Cannabinoid receptor 1 [1] and on Cannabinoid receptor 2 was “inactive” in each case.

Consider `COc1cc(C(=O)c2ccc(Cl)cc2)cc(OC)c1-c1cc(Cl)cc(Cl)c1`, for which, in the test filed under Homo sapiens, the Ratio Ki amounted to 1. Further, the Efficacy entry at Cannabinoid receptor 1 [1] and at Cannabinoid receptor 2 was “inactive” throughout.
